Assay [1] concerns the target Human recombinant PDE2A (hPDE2A) (Homo sapiens, UniProt O00408). As to the kind of experiment: In vitro assay PDE2A (SPA, 3H-cGMP). The format is biochemical. The note with it: 10 μM cGMP substrate.
The subject of assay [2] is hPDE3B. As to the kind of experiment: In vitro assay PDE3 (SPA, 3H-cAMP). To be noted: 0.4 μM cAMP substrate.
In assay [3] the target is hPDE10A2 (Homo sapiens, UniProt Q9Y233). The note with it: human clone; 60 nM cAMP substrate.

Chains of the proteins cited; added tags and fusions are not shown. Residues count along the entry.
UniProt O00408, whole entry: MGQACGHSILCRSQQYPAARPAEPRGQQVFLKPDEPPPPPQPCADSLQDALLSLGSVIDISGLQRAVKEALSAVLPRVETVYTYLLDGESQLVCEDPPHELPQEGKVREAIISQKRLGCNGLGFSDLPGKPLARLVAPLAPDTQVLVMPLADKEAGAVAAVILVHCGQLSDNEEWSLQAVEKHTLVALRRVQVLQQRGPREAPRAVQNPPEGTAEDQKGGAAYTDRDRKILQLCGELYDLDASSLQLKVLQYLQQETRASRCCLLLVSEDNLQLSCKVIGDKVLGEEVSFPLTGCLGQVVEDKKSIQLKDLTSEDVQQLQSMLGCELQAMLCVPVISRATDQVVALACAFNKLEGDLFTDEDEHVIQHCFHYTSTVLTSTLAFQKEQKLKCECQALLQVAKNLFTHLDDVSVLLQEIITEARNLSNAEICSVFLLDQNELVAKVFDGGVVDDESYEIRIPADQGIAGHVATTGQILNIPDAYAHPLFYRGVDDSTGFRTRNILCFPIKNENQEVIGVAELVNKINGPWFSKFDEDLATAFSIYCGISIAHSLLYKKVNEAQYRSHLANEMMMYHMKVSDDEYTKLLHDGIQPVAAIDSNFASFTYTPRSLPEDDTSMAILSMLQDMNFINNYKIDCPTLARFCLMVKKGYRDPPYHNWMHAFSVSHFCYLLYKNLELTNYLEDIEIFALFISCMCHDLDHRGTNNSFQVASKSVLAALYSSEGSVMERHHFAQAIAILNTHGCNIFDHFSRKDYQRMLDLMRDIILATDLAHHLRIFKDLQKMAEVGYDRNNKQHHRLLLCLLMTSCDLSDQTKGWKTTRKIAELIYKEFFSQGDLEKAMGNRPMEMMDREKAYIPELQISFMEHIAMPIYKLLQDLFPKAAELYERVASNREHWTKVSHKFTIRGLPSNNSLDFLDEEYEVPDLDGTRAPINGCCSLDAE
UniProt Q9Y233, 267-1055: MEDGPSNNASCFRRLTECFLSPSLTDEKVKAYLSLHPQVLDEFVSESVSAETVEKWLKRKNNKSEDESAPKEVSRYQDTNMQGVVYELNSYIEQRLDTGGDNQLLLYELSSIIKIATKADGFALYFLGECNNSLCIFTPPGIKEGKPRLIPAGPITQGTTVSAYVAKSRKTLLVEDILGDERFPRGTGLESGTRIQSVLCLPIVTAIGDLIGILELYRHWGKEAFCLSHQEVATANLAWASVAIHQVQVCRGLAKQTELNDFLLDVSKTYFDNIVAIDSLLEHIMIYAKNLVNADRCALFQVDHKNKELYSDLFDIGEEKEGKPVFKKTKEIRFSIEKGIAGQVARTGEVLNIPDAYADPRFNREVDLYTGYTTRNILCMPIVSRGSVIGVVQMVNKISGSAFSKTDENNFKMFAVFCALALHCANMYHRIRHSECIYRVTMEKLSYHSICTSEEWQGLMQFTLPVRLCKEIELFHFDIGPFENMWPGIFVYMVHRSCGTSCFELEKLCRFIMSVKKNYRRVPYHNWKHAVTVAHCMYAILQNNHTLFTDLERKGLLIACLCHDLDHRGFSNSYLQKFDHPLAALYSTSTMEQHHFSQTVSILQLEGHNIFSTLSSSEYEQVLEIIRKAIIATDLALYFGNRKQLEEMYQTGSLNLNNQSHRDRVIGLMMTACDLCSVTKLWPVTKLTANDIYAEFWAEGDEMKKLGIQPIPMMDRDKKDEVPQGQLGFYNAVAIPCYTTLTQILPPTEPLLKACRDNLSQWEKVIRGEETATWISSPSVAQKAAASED

Structures are written as SMILES. Bounds are passed on as bounds.

For `Cc1cc(CN2CC[C@H](C)[C@@](F)(c3cc(C(F)F)nc4ncnn34)C2)cc(C)n1`, in assay [1], the hPDE2A Emax stood at 75% and the “hPDE2A pIC50” value came out at 5.42. Also, in assay [2], the hPDE3B Emax worked out at 53% and the “hPDE3B pIC50” value is approximately 5. Besides, in assay [3], the hPDE10A2 or rPDE10A2 Emax worked out at 13% and the “hPDE10A2 or rPDE10A2 pIC50” value is less than 5.

Take `C[C@@H]1CCN(C(c2ccccc2)C(F)(F)F)C[C@H]1c1cc(C(F)F)nc2ncnn12` (single isomer, unassigned) [31]: in assay [1], the hPDE2A Emax was found to be 91% and the “hPDE2A pIC50” value is on record as 5.81. In assay [2], the hPDE3B Emax was 24% and the “hPDE3B pIC50” value was less than 5. Besides, in assay [3], the hPDE10A2 or rPDE10A2 Emax was 51% and the “hPDE10A2 or rPDE10A2 pIC50” value came out at 5.01.

With `C[C@@H]1CCN(C(c2ccccc2)C(F)(F)F)C[C@H]1c1cc(C(F)F)nc2ncnn12` (single isomer, unassigned) [32], in assay [1], the hPDE2A Emax is 96% and the “hPDE2A pIC50” value came out at 6.07. For the same compound, in assay [2], the hPDE3B Emax worked out at 35% and the “hPDE3B pIC50” value is less than 5. In assay [3], the hPDE10A2 or rPDE10A2 Emax was found to be 46% and the “hPDE10A2 or rPDE10A2 pIC50” value was less than 5.
